The test addresses Delta-type opioid receptor (Mus musculus, UniProt P32300).

Amino acid sequences for entries named in this document (tags omitted).
UniProt P32300, whole entry: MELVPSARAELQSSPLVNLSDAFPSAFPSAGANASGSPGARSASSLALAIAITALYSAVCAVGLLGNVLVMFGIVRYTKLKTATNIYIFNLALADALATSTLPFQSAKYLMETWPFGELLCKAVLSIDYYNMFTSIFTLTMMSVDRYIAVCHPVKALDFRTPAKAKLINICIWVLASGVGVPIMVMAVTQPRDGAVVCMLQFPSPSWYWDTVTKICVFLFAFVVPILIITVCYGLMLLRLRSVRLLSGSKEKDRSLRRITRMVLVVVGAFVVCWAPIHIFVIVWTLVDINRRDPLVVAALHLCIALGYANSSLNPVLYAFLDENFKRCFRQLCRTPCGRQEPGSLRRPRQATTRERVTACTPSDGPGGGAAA

Molecules are shown by their SMILES.

By EC50 is commonly meant the concentration needed to bring the measured effect to its halfway point.

As for `CC(C)[C@H](NC(=O)[C@H](CC(=O)O)NC(=O)[C@H](Cc1ccccc1)NC(=O)[C@@H](C)NC(=O)[C@@H](N)Cc1ccc(O)cc1)C(=O)N[C@H](C(=O)NCC(N)=O)C(C)C` [DELTORPHINE II], the EC50 was 0.331 nM.

The values are drawn from ChEMBL document CHEMBL1132844, “Assessment of substitution in the second pharmacophore of Dmt-Tic analogues” (Bioorg Med Chem Lett, 2000).
